From publication PMC3766633 (Biomaterials, 2013)

Experiment: Precipitation / aggregation on mixing with LMWP during coupling
Format: physicochemical
Details: mixing with LMWP or LMWP-SH during the coupling process, observation

SPDP-activated insulin: insulin activated with N-succinimidyl 3-(2-pyridyldithio) propionate
appearance on mixing / reaction with LMWP (precipitation of insoluble complexes): significant precipitation
